Holding throughout (set-up): scale not given: the % may be the effect or the level left
Assay [1] concerns the target Kappa-type opioid receptor (Cavia porcellus) (UniProt P41144). Nature of the assay: Irreversible inhibition of [3H]-naloxone binding to opioid receptor kappa of guinea pig brain membranes on preincubation with 10E-7 M of the compound. To be noted: Membrane.
The target in assay [2] is Mu-type opioid receptor (Cavia porcellus) (UniProt P97266). Nature of the assay: Irreversible inhibition of [3H][3H]ethylketocyclazocine binding to mu opioid receptors of guinea pig brain membranes on pre-incubation with 10E-4 M of the compound. To be noted: Membrane.
Assay [3] deals with Kappa-type opioid receptor (Cavia porcellus) (UniProt P41144). The assay is described as follows: Irreversible inhibition of [3H]naloxone binding to opioid receptor kappa of guinea pig brain membranes on preincubation with 10E-5 M of the compound. To be noted: Membrane.
Assay [4] concerns the target Delta-type opioid receptor (Homo sapiens) (UniProt P41143). Nature of the assay: Irreversible inhibition of [3H]DADLE binding to delta opioid receptors of guinea pig brain membranes on preincubation with 10E-4 M of the compound. Conditions: Cavia porcellus, Membrane.
For assay [5], the target named is Mu-type opioid receptor (Cavia porcellus) (UniProt P97266). Nature of the assay: Irreversible inhibition of [3H][3H]ethylketocyclazocine binding to mu opioid receptors of guinea pig brain membranes on pre-incubation with 10E-6 M of the compound. To be noted: Membrane.
Assay [6] addresses Delta-type opioid receptor (Homo sapiens) (UniProt P41143). Nature of the assay: Irreversible inhibition of [3H]DADLE binding to delta opioid receptors of guinea pig brain membranes on preincubation with 10E-6 M of the compound. To be noted: Cavia porcellus, Membrane.
Assay [7] addresses Mu-type opioid receptor (Cavia porcellus) (UniProt P97266). Nature of the assay: Irreversible inhibition of [3H][3H]ethylketocyclazocine binding to mu opioid receptors of guinea pig brain membranes on pre-incubation with 10E-5 M of the compound. Conditions: Membrane.
Assay [8] has the same target. The assay is described as follows: Irreversible inhibition of [3H][3H]ethylketocyclazocine binding to mu opioid receptors of guinea pig brain membranes on preincubation with 10E-7 M of the compound. To be noted: Membrane.
Assay [9] concerns the target Delta-type opioid receptor (Homo sapiens) (UniProt P41143). Nature of the assay: Irreversible inhibition of [3H]-DADLE binding to delta opioid receptors of guinea pig brain membranes on pre-incubation with 10E-7 M of the compound. Conditions: Cavia porcellus, Membrane.
For assay [10], the target named is Kappa-type opioid receptor (Cavia porcellus) (UniProt P41144). Nature of the assay: Irreversible inhibition of [3H]-naloxone binding to opioid receptor kappa of guinea pig brain membranes on pre-incubation with 10E-6 M of the compound. To be noted: Membrane.
Assay [11] concerns the target Delta-type opioid receptor (Homo sapiens) (UniProt P41143). Nature of the assay: Irreversible inhibition of [3H]-DADLE binding to delta opioid receptors of guinea pig brain membranes on pre-incubation with 10E-5 M of the compound. To be noted: Cavia porcellus, Membrane.
The target in assay [12] is Kappa-type opioid receptor (Cavia porcellus) (UniProt P41144). The assay is described as follows: Irreversible inhibition of [3H]naloxone binding to opioid receptor kappa of guinea pig brain membranes on preincubation with 10E-4 M of the compound. To be noted: Membrane.
Assay [13] has the same target. The assay is described as follows: Irreversible inhibition of [3H]naloxone binding to kopioid receptor kappa of guinea pig brain membranes on preincubation with 10E-4 M of the compound. To be noted: Membrane.
Assay [14] concerns the target Mu-type opioid receptor (Cavia porcellus) (UniProt P97266). Nature of the assay: Irreversible inhibition of [3H][3H]ethylketocyclazocine binding to mu opioid receptors of guinea pig brain membranes on pre-incubation with 10E-5 M of the compound. Conditions: Membrane.
The target of assay [15] is Delta-type opioid receptor (Homo sapiens) (UniProt P41143). The assay is described as follows: Irreversible inhibition of [3H]-DADLE binding to delta opioid receptors of guinea pig brain membranes on preincubation with 10E-4 M of the compound. Conditions: Cavia porcellus, Membrane.
In assay [16] the target is Kappa-type opioid receptor (Cavia porcellus) (UniProt P41144). The assay is described as follows: Irreversible inhibition of [3H]naloxone binding to opioid receptor kappa of guinea pig brain membranes on preincubation with 10E-5 M of the compound. Conditions: Membrane.
Assay [17] shares this target. The assay is described as follows: Irreversible inhibition of [3H]-naloxone binding to opioid receptor kappa of guinea pig brain membranes on pre-incubation with 10E-6 M of the compound. Conditions: Membrane.
Assay [18] has the same target. Nature of the assay: Irreversible inhibition of [3H]-naloxone binding to opioid receptor kappa of guinea pig brain membranes on preincubation with 5*10e-7 M of the compound. To be noted: Membrane.
Assay [19] has the same target. The assay is described as follows: Irreversible inhibition of [3H]naloxone binding to kopioid receptor kappa of guinea pig brain membranes on preincubation with 10E-5 M of the compound. To be noted: Membrane.

Amino acid sequences for entries named in this document (tags omitted). A change or cut given only in a name is not applied to a line headed by its entry.
UniProt P41144: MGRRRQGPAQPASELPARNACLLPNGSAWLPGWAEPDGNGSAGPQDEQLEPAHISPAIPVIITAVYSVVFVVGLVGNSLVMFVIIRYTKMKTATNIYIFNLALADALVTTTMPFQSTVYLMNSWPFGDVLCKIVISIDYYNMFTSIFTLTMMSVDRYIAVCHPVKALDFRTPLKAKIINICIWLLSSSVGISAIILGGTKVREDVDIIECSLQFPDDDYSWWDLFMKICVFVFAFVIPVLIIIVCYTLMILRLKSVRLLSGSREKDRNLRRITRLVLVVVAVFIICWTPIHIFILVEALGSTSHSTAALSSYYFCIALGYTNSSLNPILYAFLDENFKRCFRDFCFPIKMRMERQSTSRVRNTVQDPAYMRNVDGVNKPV
UniProt P97266, whole entry, looked up: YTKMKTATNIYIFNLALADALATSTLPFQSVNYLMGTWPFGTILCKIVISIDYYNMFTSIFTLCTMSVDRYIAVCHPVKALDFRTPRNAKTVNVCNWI
UniProt P41143, whole entry, looked up: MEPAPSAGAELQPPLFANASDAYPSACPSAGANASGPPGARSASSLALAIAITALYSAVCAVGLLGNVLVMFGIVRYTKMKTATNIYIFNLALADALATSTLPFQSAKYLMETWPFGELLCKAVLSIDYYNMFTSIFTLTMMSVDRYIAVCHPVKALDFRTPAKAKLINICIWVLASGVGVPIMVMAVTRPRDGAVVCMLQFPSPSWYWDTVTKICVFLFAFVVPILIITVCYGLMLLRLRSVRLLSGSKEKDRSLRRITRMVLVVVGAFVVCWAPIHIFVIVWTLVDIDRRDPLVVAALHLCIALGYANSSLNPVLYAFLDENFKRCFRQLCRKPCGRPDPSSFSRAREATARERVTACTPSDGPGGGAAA

Regarding `C=C1C[C@@]2(CC[C@H](N3CCCC3)[C@@H](N(C)C(=O)Cc3ccc(Cl)c(Cl)c3)C2)OC1=O`, the Control in assay [1] worked out at 86%; in assay [2], 36%; in assay [3], 44%; in assay [4], 51%; in assay [5] it was 83%; in [6], 103%. Besides, the Control in [7] is 64%; in assay [8], 89%; in assay [9], 95%; in assay [10], 74%; in assay [11], 81%; in assay [12], 93%.
Regarding `CN(C(=O)Cc1ccc(Cl)c(Cl)c1)C1CCCCC1N1CCCC1` (stereo unspecified), the Control was 105% in assay [13]; 101% in assay [14]; 96% in assay [15]; 78% in assay [2]; 91% in [5]; 109% in assay [10]. Moreover, the Control in assay [16] is 38%; in assay [11] it was 91%.
Regarding `C=C1C[C@]2(CC[C@H](N3CCCC3)[C@@H](N(C)C(=O)Cc3ccc(Cl)c(Cl)c3)C2)OC1=O`, the Control in assay [17] is 13%; in assay [1], 92%; in [2], 24%; in assay [4], 66%; in [5], 100%; in assay [6], 100%. Besides, the Control amounted to 69% in [18]; 73% in [19]; 73% in [7]; 97% in [11]; 49% in assay [12].

Values taken from ChEMBL document CHEMBL1126080, “Selective reversible and irreversible ligands for the kappa opioid receptor” (1992).
